Values of other authors, collected in publication PMC8800111 (The Journal of Biological Chemistry, 2021).

Conditions: clinical trials for antimicrobial and anticancer effects; cited from earlier work

## CCc1nc(N)nc(N)c1-c1ccc(Cl)cc1 [pyrimethamine]
  toxicity at therapeutic levels: essentially no toxicity
